In general, inhibition refers to the drop in the measured response relative to a control, in per cent.

The list shows a part of the results, in another mix than the full data. Active and inactive are the calls of the source. Cut-off read from the data, not from the text of the source: active = inhibition above about 21%; inactive = the rest.

In the experiment the target is Cathepsin B (Homo sapiens) (UniProt P07858). Briefly: human cathepsin B inhibitors, primary screen, biochemical, fluorogenic substrate (AID 453).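 Note: 0% = enzyme with no compound and 100% = no enzyme blank.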 The conditions noted are these: purified cathepsin B, fluorescence, hits give high values,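 tested at 10 µM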.
Turning to `Cc1nn(-c2ccccc2)c2c1P(=O)(N1CCOCC1)N(C)C(c1ccccc1)=N2` (centres undefined), the inhibition is inactive: 3.76%.

Take `O=P1(Nc2ncccn2)COc2ccccc2OC1`: the inhibition is inactive: 8.44%.

Take `Cc1ccc(OCC(=O)OC2CN3CCC2CC3)cc1` (centres undefined): the inhibition is inactive: 5.14%.

Regarding `O=P1(Nc2ccc(Br)cn2)COc2ccccc2OC1`, the inhibition was inactive: 2.7%.

`O=P1(Nc2ccccn2)COc2ccccc2OC1`: the inhibition was inactive: 4.81%.

For the compound `Clc1n[nH]nc1-c1nn[nH][15n]1`, the inhibition was inactive: 2.33%.

`Cc1cccc(OCC(=O)OC2CN3CCC2CC3)c1` (centres undefined): the inhibition was inactive: -0.32%.

For `CCOP1(=S)c2c(C)nn(CCC#N)c2N=C(c2ccccc2F)N1C` (centres undefined), the inhibition is inactive: 7.36%.

Regarding `O=P(Nc1nccs1)(c1ccccc1)c1nc2ccccc2s1` (centres undefined), the inhibition is inactive: -3.8%.

Regarding `CCOP1(=S)c2c(C)nn(CCC#N)c2N=C(c2ccc(F)cc2)N1C` (centres undefined), the inhibition was inactive: -3.73%.

On to `O=C(OC1CN2CCC1CC2)C12CC3CC(CC(C3)C1)C2` (centres undefined), for which the inhibition was inactive: -1.76%.

Turning to `COP1(=S)c2c(C)nn(CCC#N)c2N=C(c2ccc(F)cc2)N1C` (centres undefined), the inhibition is inactive: -0.23%.

For `O=C(COc1ccccc1)OC1CN2CCC1CC2` (centres undefined), the inhibition is inactive: 3.06%.

In the case of `CCc1nc2c(n1)c1c(non1O)c1c2no[n+]1[O-]`, the inhibition is inactive: 3.76%.

Turning to `COC(=O)c1cc2c(s1)N=C(c1ccccc1)N(C)P2(=O)N1CCOCC1` (centres undefined), the inhibition was inactive: 5.24%.

With `O=P1(Nc2nc3ccc(Cl)cc3s2)COc2ccccc2O1` (centres undefined), the inhibition was inactive: 1.24%.

Turning to `O=P(Nc1nccs1)(c1ccccc1)c1ccccc1`, the inhibition is inactive: 2.95%.

On to `c1nnnn1CCn1cnnn1`, for which the inhibition is inactive: -3.5%.

`O=C(OC1CN2CCC1CC2)c1cccc(Cl)c1` (centres undefined): the inhibition is inactive: 2.56%.

The values above are taken from PubChem BioAssay AID453 (PCMD, 2006).
